Results reported in the NIST ThermoML archive (doi:10.1021/je800152d).

Assay: cn = amount concentration of the nth substance listed, in mol/dm3
Conditions: 298.15 K, 101 kPa, Liquid, Direct current cell with electrodes

CCC[N+](CCC)(CCC)CCC.O=S(=O)([N-]S(=O)(=O)C(F)(F)F)C(F)(F)F [tetrapropylammonium bis[(trifluoromethyl)sulfonyl]imide] + ClCCl
Conditions	molar conductivity [S·m2/mol]
c1 = 2.208e-05	0.008542
c1 = 4.726e-05	0.007477
c1 = 8.42e-05	0.006476
c1 = 0.0001183	0.005862
c1 = 0.0001551	0.005415
c1 = 0.0002027	0.00498
c1 = 0.000241	0.004713
c1 = 0.0002936	0.004414
c1 = 0.0003524	0.004144
c1 = 0.0004038	0.003971
